Experimental findings from ChEMBL document CHEMBL3046010, “Synthesis and pharmacological evaluation of 4-[2-hydroxy-3-(4-phenyl-piperazin-1-yl)-propoxy]-4-azatricyclo[5.2.1.02,6]dec-8-ene-3,5-dione” (Med Chem Res, 2008) are described below.

By UniProt entry, the sequences of proteins in these tests, tags left out.
UniProt P19327, whole entry: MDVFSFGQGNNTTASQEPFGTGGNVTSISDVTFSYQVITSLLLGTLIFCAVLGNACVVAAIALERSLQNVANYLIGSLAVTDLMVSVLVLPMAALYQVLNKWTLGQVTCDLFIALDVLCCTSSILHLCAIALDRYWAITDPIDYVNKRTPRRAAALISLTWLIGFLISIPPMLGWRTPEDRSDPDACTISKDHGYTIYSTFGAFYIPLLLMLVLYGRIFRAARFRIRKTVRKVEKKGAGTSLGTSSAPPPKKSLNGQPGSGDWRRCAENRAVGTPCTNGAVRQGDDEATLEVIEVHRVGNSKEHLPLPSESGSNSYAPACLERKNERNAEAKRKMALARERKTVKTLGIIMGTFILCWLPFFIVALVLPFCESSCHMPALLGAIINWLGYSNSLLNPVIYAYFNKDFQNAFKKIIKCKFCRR

What is called Ki is the dissociation constant of the complex between target and ligand, obtained from inhibition or displacement. Low readings indicate higher affinity, high ones lower affinity.

This assay concerns the target 5-hydroxytryptamine receptor 1A (Rattus norvegicus, UniProt P19327). Put plainly: Displacement of [3H]8-OH-DPAT from 5HT1A receptor in Rattus norvegicus (rat) cerebral cortex after 15 min by filter binding assay. Type of assay: tissue-based. On the technique in general: Loss of bound radioactivity is the signal in a displacement assay; it reports binding, not function.

In the case of `NCCc1c[nH]c2ccc(O)cc12` [SEROTONIN], affinity was put at a Ki of 9 nM.
